This note sets out measurements from ChEMBL document CHEMBL1126154, “Pyrrole mannich bases as potential antipsychotic agents” (J Med Chem, 1992).

Sequences of proteins named here, by UniProt entry; tags and fusion partners are left off. A change or cut given only in a name is not applied to a line headed by its entry.
UniProt P19327, whole entry: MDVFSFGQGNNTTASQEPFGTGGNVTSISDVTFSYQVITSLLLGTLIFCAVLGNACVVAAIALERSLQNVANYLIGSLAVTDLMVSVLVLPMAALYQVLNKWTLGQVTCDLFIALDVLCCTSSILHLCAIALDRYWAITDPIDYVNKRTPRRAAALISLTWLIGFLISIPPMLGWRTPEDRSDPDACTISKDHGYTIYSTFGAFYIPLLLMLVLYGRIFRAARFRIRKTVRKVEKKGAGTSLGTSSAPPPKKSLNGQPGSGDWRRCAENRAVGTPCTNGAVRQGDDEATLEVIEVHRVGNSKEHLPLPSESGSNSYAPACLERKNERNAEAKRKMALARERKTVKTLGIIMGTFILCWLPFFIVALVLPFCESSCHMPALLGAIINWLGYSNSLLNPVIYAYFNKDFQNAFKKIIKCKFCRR
UniProt P30994: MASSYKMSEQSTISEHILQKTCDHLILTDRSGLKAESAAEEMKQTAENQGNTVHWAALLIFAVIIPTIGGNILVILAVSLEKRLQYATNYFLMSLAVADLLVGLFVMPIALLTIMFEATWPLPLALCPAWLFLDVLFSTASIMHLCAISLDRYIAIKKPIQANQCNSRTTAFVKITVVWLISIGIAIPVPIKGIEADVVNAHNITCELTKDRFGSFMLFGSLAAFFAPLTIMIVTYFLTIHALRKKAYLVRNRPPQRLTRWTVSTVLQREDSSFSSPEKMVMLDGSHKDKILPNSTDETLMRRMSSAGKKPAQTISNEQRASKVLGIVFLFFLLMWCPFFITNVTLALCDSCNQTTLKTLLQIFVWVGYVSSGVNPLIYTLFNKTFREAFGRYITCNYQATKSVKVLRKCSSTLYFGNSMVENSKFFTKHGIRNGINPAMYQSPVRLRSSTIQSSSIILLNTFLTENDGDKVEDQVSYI
UniProt P08909: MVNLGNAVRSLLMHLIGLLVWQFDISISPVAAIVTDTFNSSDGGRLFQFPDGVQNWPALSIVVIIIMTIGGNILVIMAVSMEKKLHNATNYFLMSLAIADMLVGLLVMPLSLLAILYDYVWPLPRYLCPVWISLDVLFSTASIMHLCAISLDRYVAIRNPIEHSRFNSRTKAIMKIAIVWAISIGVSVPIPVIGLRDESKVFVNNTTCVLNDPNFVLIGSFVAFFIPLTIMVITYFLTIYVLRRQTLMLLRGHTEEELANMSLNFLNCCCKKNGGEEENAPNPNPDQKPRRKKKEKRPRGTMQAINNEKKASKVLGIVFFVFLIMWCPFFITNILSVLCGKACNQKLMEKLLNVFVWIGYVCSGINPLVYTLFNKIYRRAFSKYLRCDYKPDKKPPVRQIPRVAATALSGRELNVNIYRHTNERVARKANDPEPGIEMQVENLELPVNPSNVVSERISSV
UniProt P14842: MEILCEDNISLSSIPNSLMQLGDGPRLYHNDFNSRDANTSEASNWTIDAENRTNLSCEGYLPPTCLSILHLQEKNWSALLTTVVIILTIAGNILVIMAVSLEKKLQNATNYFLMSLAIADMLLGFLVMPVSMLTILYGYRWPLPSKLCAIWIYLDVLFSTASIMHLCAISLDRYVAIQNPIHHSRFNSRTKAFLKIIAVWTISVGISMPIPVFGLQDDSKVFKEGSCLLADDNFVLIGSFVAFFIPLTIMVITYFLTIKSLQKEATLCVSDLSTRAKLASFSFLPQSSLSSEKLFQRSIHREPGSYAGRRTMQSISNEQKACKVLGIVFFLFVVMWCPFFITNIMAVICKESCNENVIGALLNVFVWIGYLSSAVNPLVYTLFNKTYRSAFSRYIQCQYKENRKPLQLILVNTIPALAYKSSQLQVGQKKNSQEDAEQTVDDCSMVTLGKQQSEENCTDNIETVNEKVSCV

Assay [1] addresses 5-hydroxytryptamine receptor 1A (Rattus norvegicus, UniProt P19327). Kind of assay: Binding affinity towards 5-hydroxytryptamine 1A receptor by displacing [3H]WB-4101 from rat hippocampus. In kind it is tissue-based.
Assay [2] addresses Serotonin 2 (5-HT2) receptor (Rattus norvegicus, UniProt P30994+P08909+P14842). Description: The compound was tested for its binding affinity towards 5-hydroxytryptamine 2 receptor by displacing [3H]ketanserin radioligand in rat cerebral cortex. In kind it is tissue-based.

Take `Cn1c(CN2CCN(c3cccc(Cl)c3)CC2)ccc1CN1CCCCC1=O`: in assay [1], the Ki came out at 34.3 nM.

For `Cc1nc2sccn2c(=O)c1CCN1CCC(=C(c2ccc(F)cc2)c2ccc(F)cc2)CC1` [RITANSERIN], the Ki in assay [2] was 0.26 nM.

Broadly, the Ki is a measure of affinity in units of concentration, obtained from inhibition or displacement.
